From patent US11485744B2, “High penetration prodrug compositions of antimicrobials and antimicrobial-related compounds” (priority 2009, dated 2022)

Conditions: mouse, in vivo
Protocol: In vivo rates of penetration of HPPs of beta-lactam antibiotics through skin and blood-brain barrier of intact hairless mice were studied. […] After 2 hours, the mice were killed. 5 ml of methanol was added to 1 g of homogenized blood, liver, kidney, muscle, or brain. The samples were centrifuged for 5 min and analyzed by HPLC (Table 2).

## CCN(CC)CCOC(=O)C1N2C(=O)C(NC(=O)c3c(OC)cccc3OC)C2SC1(C)C.Cl (stereo not shown) [methicillin-DEE, 6-(2,6-dimethoxybenzamido)penicillinic acid 2-diethylaminoethyl ester hydrochloride]
  Amount of parent drug found in Blood: 27 ± 6 µg/g
  Amount of parent drug found in Kidney: 15 ± 5 µg/g
  Amount of parent drug found in Liver: 15 ± 5 µg/g
  Amount of parent drug found in Muscel: 20 ± 5 µg/g
